Laboratory results from US20260294901A1 (INTRA-CELLULAR THERAPIES, INC., priority 2025, published 2026).

Chains of the proteins cited; added tags and fusions are not shown.
UniProt P21728, whole entry: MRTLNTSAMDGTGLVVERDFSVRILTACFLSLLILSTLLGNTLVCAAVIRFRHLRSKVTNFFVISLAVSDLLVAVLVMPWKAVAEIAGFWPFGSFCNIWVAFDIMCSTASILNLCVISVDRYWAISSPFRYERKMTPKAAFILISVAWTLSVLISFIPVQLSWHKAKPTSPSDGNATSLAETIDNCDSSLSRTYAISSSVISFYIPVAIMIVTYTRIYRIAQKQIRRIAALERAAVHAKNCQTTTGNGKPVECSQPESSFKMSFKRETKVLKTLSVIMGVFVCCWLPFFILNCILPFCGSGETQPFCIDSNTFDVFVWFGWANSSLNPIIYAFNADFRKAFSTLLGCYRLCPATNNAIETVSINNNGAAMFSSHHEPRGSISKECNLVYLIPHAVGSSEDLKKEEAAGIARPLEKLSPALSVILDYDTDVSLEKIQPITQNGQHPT

Target: dopamine D1 (Homo sapiens, UniProt P21728)
Experiment: binding affinity for dopamine D1 receptors

SMILES: CN1CCN2c3c(cccc31)[C@@H]1CN(CCCC(=O)c3ccc(F)cc3)CC[C@@H]12 [lumateperone, 4-((6bR,10aS)-3-methyl-2,3,6b,9,10,10a-hexahydro-1H-pyrido[3′,4′: 4,5]pyrrolo[1,2,3-de]quinoxaline-8(7H)-yl)-1-(4-fluorophenyl)-1-butanone]
- Ki: 52 nM
